# Screens: PubChem, Broad Institute
# Compounds with a hit are over-represented: about 1.7% of the library has one in this group of screens.
# UUG fidelity – modulators of start codon recognition fidelity in yeast; AID 602363; activity score, % at 18.7 µM; S. cerevisiae UUG-firefly luciferase reporter, luminescence/redox ratio; 0.13% of 350,000 active;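 active = replicate mean at a twofold rise or more, about +100% in these data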;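 note: firefly luciferase made from a UUG start codon reports start codon fidelity; reporter light over untreated wells divided by growth signal over untreated wells; some hits fall short of that in this replicate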
# CDK5 p35 inh – inhibitors of human CDK5/p35 kinase | Recombinant CDK5/p35, ADP-Glo luminescence, 60 min | inhibition, % at 10 µM | hit rate 0.01% among 330,000 | AID 488839;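 active = highest replicate inhibition of at least 50% and at least 75% of replicates reaching 50%; inconclusive = only one of the two criteria met; inactive = both criteria failed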;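 note: plate controls were DMSO neutral control for no effect and GW8510 at 10 µM for full effect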
# dFosB act-1 – activators of mouse delta FosB homodimer; P13346; purified delta FosB, TAMRA-CDK5 oligo fluorescence polarization; percent of positive-control signal above neutral wells; activation, % at 25 µM; hit rate 0.99% among 340,000; AID 493131;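 active = mean activation above about 17%, with every replicate also reaching it, limit read from the data, passing the limit was not always enough; inconclusive = only one of the two conditions met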
# DYRK1A inh – Dyrk1A (rat) kinase inhibition. inhibition, % at 12.5 µM. AID 504441. ADP-Glo luminescence, NFATc1 peptide. hit rate 0.43% among 310,000; in the data active = inhibition above about 50%;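 note: plate controls were vehicle with enzyme for no effect and no enzyme for full effect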
# CAL PDZ FP-1 – inhibitors of human CAL PDZ peptide binding | Q9HD26 | purified CAL PDZ, TMR-peptide fluorescence polarization, 1 h | inhibition, % at 24.9 µM | hit rate 0.92% among 300,000 | AID 602252;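 active = mean inhibition of at least 30% with at least half of replicates also reaching 30%; inconclusive = no clear call, values can overlap the other calls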;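 note: 0% = DMSO neutral control and 100% = excess unlabeled competitor peptide PRC23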
# CAL PDZ FP-2 – blocks peptide binding to human CAL PDZ domain. purified CAL PDZ, TMR-peptide fluorescence polarization, 1 h. inhibition, % at 20 µM. hit rate 0.02% among 330,000. AID 504414;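 active = highest replicate inhibition of at least 40%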;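 note: plate controls were DMSO neutral control wells for no effect and unlabeled competitor peptide control wells for full effect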
#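 Material: tagged CAL PDZ protein CerCALP, purified; buffer or medium: sodium phosphate/NaCl buffer pH 7.4 with TCEP, IgG, Thesit; also added: fluorescent TMR peptide probe; schedule: 1 h incubation at room temperature before polarization reading; technique: fluorescence polarization from S- and P-plane intensities, G-factor corrected; control set: unlabelled peptide and DMSO controls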
# dFosB act-2 – delta FosB (mouse) homodimer activation; activation, % at 24.9 µM; shares compounds with dFosB act-1; purified delta FosB, TAMRA-CDK5 oligo fluorescence polarization; normalised: neutral wells 0, positive control 100; 2,400 tested, under 10 active;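 active = highest replicate activation at or above 34% and every replicate reaching that threshold; inconclusive = meets only one of the two criteria; inactive = meets neither criterion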;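 note: higher polarization means more probe DNA bound by delta FosB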
# * marks the source's active call; other numbers are inactive results; ? = inconclusive; · = no result given.
(1) CNC(=S)N/N=C/c1ccc(OCC(=O)Nc2c(C)cc(C)cc2C)c(OC)c1
(2) COc1ccc(NC(=O)COc2ccc(/C=N/NC(=O)c3cccnc3)cc2OC)cc1
(3) COc1ccc2sc(/C=C/c3ccccc3O)[n+](C)c2c1
(4) Cc1ccc(-c2ccc3c(c2)O[C@@H](CN(C)Cc2cncnc2)[C@@H](C)CN([C@@H](C)CO)S3(=O)=O)cc1
(5) COc1ccc(NC(=O)c2cc(S(=O)(=O)N3CCCC3)ccc2OC)cc1
Compound,1,2,3,4,5
UUG fidelity,·,·,·,0,11
CDK5 p35 inh,1,-1,3,·,1
dFosB act-1,2,-11,65*,·,-7
DYRK1A inh,2,1,6,·,-1
CAL PDZ FP-1,3,-2,-9,·,-4
CAL PDZ FP-2,1,-4,-1,·,-2
dFosB act-2,·,·,8,·,·

(6) COc1ccc(NC(=O)c2cc(S(=O)(=O)N3CCS(=O)(=O)CC3)ccc2Cl)cc1
(7) CC(=O)c1cccc(NC(=O)Cn2cnc(S(=O)(=O)N3CCC(C)CC3)c2)c1
(8) CC1CCN(S(=O)(=O)c2cn(CC(=O)Nc3cccc(C#N)c3)cn2)CC1
(9) COc1cc(OC)cc(-c2nnc(NC(=O)c3ccc4c(c3)OCCO4)o2)c1
(10) COc1cccc(NC(=O)c2ccc3c(c2)OCCO3)c1
Compound,6,7,8,9,10
UUG fidelity,-15,-10,-14,6,-63
CDK5 p35 inh,1,-3,-1,-1,12
dFosB act-1,52*,50*,-1,26*,-2
DYRK1A inh,-5,-2,10,-5,19
CAL PDZ FP-1,-4,-1,-1,-2,-5
CAL PDZ FP-2,-1,-2,1,-2,0
dFosB act-2,2,0,·,-8,·

(11) COc1cccc(C(=O)Nc2nnc(-c3ccc(Cl)cc3)o2)c1
(12) C[C@@H]1CN([C@@H](C)CO)C(=O)c2cc(NC(=O)Nc3ccc(F)cc3)ccc2O[C@@H](C)CCCCO[C@@H]1CN(C)Cc1ccccc1
(13) C=CCN(c1ccccc1)S(=O)(=O)c1cccc(C(=O)Nc2nc3ccccc3[nH]2)c1
(14) C[C@@H]1CN([C@H](C)CO)C(=O)c2cc(NC(=O)CCCN(C)C)ccc2O[C@@H](C)CCCCO[C@H]1CN(C)Cc1ccc2c(c1)OCO2
(15) COc1ccc2oc(=O)c(-c3cn4ccc(C)cc4n3)cc2c1
Compound,11,12,13,14,15
UUG fidelity,-3,4,-17,-6,·
CDK5 p35 inh,0,·,-1,·,0
dFosB act-1,23*,·,47*,·,26*
DYRK1A inh,-2,·,1,·,5
CAL PDZ FP-1,·,·,-1,·,0
CAL PDZ FP-2,-2,·,-1,·,-2
dFosB act-2,-2,·,1,·,5

(16) O=C(CCCCC(=O)NN=Cc1ccc(Cl)cc1)NN=Cc1ccc(Cl)cc1
(17) COc1ccccc1CNC(=O)C[C@@H]1CC[C@H]2[C@@H](COC[C@@H](O)CN2C(=O)Nc2ccc(Cl)cc2)O1
(18) Cc1ccc(-c2cc(C(=O)N/N=C/c3ccccc3)n[nH]2)o1
(19) Cc1ccc(-c2cc(C(=O)N/N=C/c3ccc(Cl)cc3)n[nH]2)o1
(20) C[C@H]1CN([C@@H](C)CO)S(=O)(=O)c2ccc(-c3ccc(C(=O)N(C)C)cc3)cc2O[C@@H]1CN(C)C(=O)Nc1ccccc1F
Compound,16,17,18,19,20
UUG fidelity,·,7,3,6,29
CDK5 p35 inh,1,·,2,0,·
dFosB act-1,25*,·,10,27*,·
DYRK1A inh,-3,·,-6,-2,·
CAL PDZ FP-1,·,·,-8,-3,·
CAL PDZ FP-2,-1,·,-5,-6,·
dFosB act-2,1,·,·,1,·

(21) CS(=O)(=O)NNC(=O)c1csc(Cc2c(Cl)sc3ccc(Cl)cc23)n1
(22) CC(C)C(=O)NNC(=O)c1csc(CS(=O)(=O)c2ccc(Cl)cc2)n1
(23) N#CCCn1cc(/C=N/NC(N)=S)c(-c2ccc(-c3ccccc3)cc2)n1
(24) N#CCCn1cc(/C=N/O)c(-c2ccccc2)n1
(25) Cc1ccc(CSc2nnc(SCC(=O)N/N=C/c3c[nH]c4ccccc34)s2)cc1
Compound,21,22,23,24,25
UUG fidelity,·,·,·,-15,-16
CDK5 p35 inh,-1,1,1,4,-1
dFosB act-1,36*,0,27*,5,81*
DYRK1A inh,1,2,1,8,12
CAL PDZ FP-1,-4,-6,·,1,-1
CAL PDZ FP-2,-1,-2,-1,0,0
dFosB act-2,-1,·,4,·,9

# One compound at a time, as listed above:
# CS(=O)(=O)NNC(=O)c1csc(Cc2c(Cl)sc3ccc(Cl)cc23)n1 is listed with UUG fidelity = ·; CDK5 p35 inh = -1; dFosB act-1 = 36*; DYRK1A inh = 1; CAL PDZ FP-1 = -4; CAL PDZ FP-2 = -1; dFosB act-2 = -1
# N#CCCn1cc(/C=N/NC(N)=S)c(-c2ccc(-c3ccccc3)cc2)n1 is listed with UUG fidelity = ·; CDK5 p35 inh = 1; dFosB act-1 = 27*; DYRK1A inh = 1; CAL PDZ FP-1 = ·; CAL PDZ FP-2 = -1; dFosB act-2 = 4

# Next records.
(26) Cc1ccccc1S(=O)(=O)NCC[C@H]1CC[C@H](NC(=O)C2CC2)[C@H](CO)O1
(27) O=C(NCC1CC1)[C@H]1[C@H](CO)[C@H]2Cn3c(cccc3=O)[C@@H]1N2C(=O)c1cccnc1
(28) C/C(=N\NC(=O)c1ccncc1)c1cccc(NC(=O)c2ccc(C(C)(C)C)cc2)c1
(29) C/C(=N\NC(=O)COc1ccccc1[N+](=O)[O-])c1cccc(NC(=O)c2ccncc2)c1
(30) O=C(CCN1CCCCC1)N[C@H]1CC[C@@H](CCNS(=O)(=O)c2ccc(Cl)cc2)O[C@H]1CO
Compound,26,27,28,29,30
UUG fidelity,3,-11,-27,-36,11
CDK5 p35 inh,·,·,2,1,·
dFosB act-1,·,·,-12,21*,·
DYRK1A inh,·,·,-3,-7,·
CAL PDZ FP-1,·,·,0,3,·
CAL PDZ FP-2,·,·,-2,-4,·
dFosB act-2,·,·,·,3,·

(31) O=C(NNC(=O)c1sc2cccc(Cl)c2c1Cl)NC1CCCCC1
(32) O=C(NNC(=O)c1sc2cccc(Cl)c2c1Cl)Nc1ccccc1
(33) COc1ccc(Cn2c(C)c(C)c(C#N)c2NC(=O)Nc2cccc(C)c2)cc1
(34) Cc1ccc(NC(=O)Cn2cc(C(F)(F)F)cc(Cl)c2=O)cc1Cl
(35) Cc1nn(CC(=O)Nc2ccncc2)c(C)c1[N+](=O)[O-]
Compound,31,32,33,34,35
UUG fidelity,-11,-16,-17,·,-19
CDK5 p35 inh,2,-1,-1,-1,0
dFosB act-1,7,76*,63*,23*,-3
DYRK1A inh,-14,-4,-1,1,10
CAL PDZ FP-1,0,-2,0,6,-1
CAL PDZ FP-2,1,-1,-2,0,-1
dFosB act-2,·,0,3,6,·

(36) Cc1ccc(-c2ccc(=O)n(CC(=O)Nc3ccc4c(c3)OCCO4)n2)cc1
(37) Cc1ccc(NC(=O)Cn2nc(-c3ccco3)ccc2=O)cc1Cl
(38) Cc1ccc(NC(=O)Cn2nc(C)c([N+](=O)[O-])c2C)cc1Cl
(39) C[C@@H]1CN([C@@H](C)CO)C(=O)c2cc(NC(=O)C3CC3)ccc2O[C@@H]1CN(C)C(=O)Nc1ccccc1
(40) CCN1CCN(c2cc(N3CCc4ccccc4C3)c(F)cc2[N+](=O)[O-])CC1
Compound,36,37,38,39,40
UUG fidelity,·,0,·,-1,·
CDK5 p35 inh,0,-1,2,·,-1
dFosB act-1,-9,78*,28*,·,19*
DYRK1A inh,1,-5,3,·,5
CAL PDZ FP-1,5,-8,2,·,-3
CAL PDZ FP-2,-3,-4,-3,·,-1
dFosB act-2,·,0,0,·,0

(41) Cn1c(=O)c2ncn(CC(=O)Nc3nc(-c4ccc(Cl)cc4)cs3)c2n(C)c1=O
(42) Cn1c(=O)c2c(ncn2CC(=O)Nc2nc(-c3ccccc3Cl)cs2)n(C)c1=O
(43) Cc1cc(C)c(C)c(C(=O)COC(=O)CNC(=O)CN2C(=O)c3ccccc3C2=O)c1C
(44) C=CCn1c(C)cc(-c2csc(NC(=O)CCc3nc4ccccc4c(=O)[nH]3)n2)c1C
(45) O=C(CCc1nc2ccccc2c(=O)[nH]1)Nc1nc(-c2cccs2)cs1
Compound,41,42,43,44,45
UUG fidelity,·,-13,-20,-8,·
CDK5 p35 inh,-3,0,1,-2,2
dFosB act-1,24*,-1,43*,-4,26*
DYRK1A inh,3,-1,1,4,22
CAL PDZ FP-1,·,0,-1,-4,-3
CAL PDZ FP-2,0,29,-2,0,-2
dFosB act-2,1,·,?,·,-1

# Just dFosB act-2 and CDK5 p35 inh (2 entries from above):
entry	SMILES	dFosB act-2	CDK5 p35 inh
44	C=CCn1c(C)cc(-c2csc(NC(=O)CCc3nc4ccccc4c(=O)[nH]3)n2)c1C	·	-2
45	O=C(CCc1nc2ccccc2c(=O)[nH]1)Nc1nc(-c2cccs2)cs1	-1	2
